The IC50 is the concentration that gives 50% inhibition.

Chains of the proteins cited; added tags and fusions are not shown. Residues count along the entry.
UniProt Q05097, 2-122: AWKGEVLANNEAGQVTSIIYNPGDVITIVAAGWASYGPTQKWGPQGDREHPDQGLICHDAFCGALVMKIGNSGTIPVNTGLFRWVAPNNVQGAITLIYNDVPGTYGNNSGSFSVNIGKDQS

Experimental findings from US10105380B2, “Glycoclusters and their pharmaceutical use as antibacterials” (priority 2013, dated 2018) are described below.

This test has as its target PA-IL (Pseudomonas aeruginosa, UniProt Q05097). The settings on record: lactose concentration required to displace 50% of PA-IL from the glycocluster; higher = better binding. On the procedure: IC50 Determination with “on Chip” Biological Recognition
Lectin PA-IL (0.12 μM final concentration), BSA (2% final concentration) and CaCl2 (1 μg/mL final concentration) was diluted in PBS1× (pH=7.4). In each micro tube was added the inhibitor lactose at the desired final concentration (0; 1.10^−5; 1.10^−4; 5.10^−4; 1.10^−3; 5.10^−3; 1.10^−2; 5.10^−2; 0.1; 1; 5; 10; 50; 10^2; 5.10^2; 10^3; 5.10^3; 10^4; 10^5; 3.10^5).
2 μL of each solution were deposited in the corresponding microwells and the slide was incubated at 37° C. in a water vapor saturated chamber for 3 h. The washing steps are: PBS-Tween0.2% 5 min at 4° C., then briefly in deionized water and dried by centrifugation.
Slide was scanned at 532 nm then at 635 nm with the Microarray scanner, GenePix 4100A software package (Axon Instruments; λex 532/635 nm and λem 575/670 nm). The fluorescence signal of each conjugate was determined as the average of the mean fluorescence signal of sixty-four spots.
IC50 values were determined using “BioDataFit 1.02 program”. The model chosen was “Sigmoidal”: Y=a+(b−a)/[1+10^(x−c)]
with a=FImin, b=FImax, x=[…] and c=log(IC50). FImin/max is the minimum/maximum Alexa-647 fluorescence signal observed for a galactomimetic.
So the IC50 value was called IC50Lac.

For the substance Man(POProTzAcNPhe-O-Gal)4 [17d], the concentration for half-maximal inhibition (IC50) was 2.83 mM.
